The structures appear in SMILES notation. The list shows a part of the results, in another mix than the full data. The source made the active and inactive calls.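 How the source made its calls: active means mean of three repeat readings of reporter signal inhibition above a set limit (cut at about 70% in these data); inactive means the rest.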

The nature of this assay: retest of CHOP induction inhibitors, confirmation, cell-based (AID 504437).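 Further: 0% = tunicamycin plus vehicle and 100% = wells lacking tunicamycin.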 The settings on record: CHO-CHOP promoter luciferase reporter, tunicamycin-induced, luminescence; at 10 µM; active compounds read high. In general terms: A reporter such as luciferase makes a cellular process visible.
Take `CCc1nc2c(n1)c1c(non1O)c1c2no[n+]1[O-]`: the inhibition is inactive: 65%.

By inhibition is commonly meant the share of the control response that was lost under treatment.

For the origin of these results see PubChem BioAssay AID504437 (Emory University Molecular Libraries Screening Center, 2011).
